Results on one compound are retold here after US5175166A, “Muscarinic agonists” (The University of Toledo, priority 1991, dated 1992).

This series concerns muscarinic receptors. Kind of series: Phosphoinositide (PI) response / inositol phosphate formation in brain slices (region not stated). Conditions: carbachol under assay conditions, 45 min incubation. The method, then:
The slices were gently agitated at 37° C. in a shaking water bath for 45 min with three changes to buffer.
The sample loading and solution delivery were performed by using disposable plastic syringes; an approximate flow rate of 10-15 ml/min was maintained.

Regarding `C[N+](C)(C)CCOC(N)=O` [carbachol, reference compound], the “increase in IP's accumulation over the basal unstimulated value” is 3-5 fold.
